According to ChEMBL document CHEMBL1157167, “Structural insights into how irreversible inhibitors can overcome drug resistance in EGFR” (Bioorg Med Chem, 2008):

Target: Proto-oncogene tyrosine-protein kinase Src (Gallus gallus, UniProt P00523, S345C/T338M)
Experiment: Inhibition of drug-resistant chicken cSrc double mutant expressed in Escherichia coli

- IC50: 5.71 µM
SMILES: CN(C)C/C=C/C(=O)Nc1ccc2ncnc(Nc3cccc(Br)c3)c2c1
